Legend:
[1] = molecular target: T1, myc-tagged full-length GTRAP4-41 (rat, UniProt Q9QWN8); assay: GST pull-down from HEK 293T lysate, anti-c-myc immunoblot
T1 construct: tested from solubilized cell extract; also called myc-tagged GTRAP4-41; not shown: myc tag of the myc-tagged pRK5 vector
Protocol: (§1) Fusion proteins and in vitro binding. Full-length EAAT4 was subcloned into the EcoR I site of the GST-fusion vector pGEX-6P-1 (Pharmacia). Synthesis of recombinant proteins in BL21 cells (Novagen) was induced by 0.1 mM isopropyl β-D-thiogalactoside for 2 hrs at 30° C. and purified according to the protocol provided by the manufacturer (Pharmacia). […] The cellular lysate was incubated with GST or GST-EAAT4 immobilized on glutathione-Sepharose-4B, and washed to remove non-specifically bound proteins. Specifically bound proteins were eluted with 2×SDS loading buffer and analyzed by immunoblotting using an anti-c-myc antibody.
(§2) GTRAP4-41 and 4-48 Immunoprecipitation with Fusion Proteins. Full-length EAAT4 was subcloned into the EcoR I site of the GST-fusion vector pGEX-6P-1 (Pharmacia). Synthesis of recombinant proteins in BL21 cells (Novagen) was induced by 0.1 mM isopropyl b-D-thiogalactoside for 2 hrs at 30° C. and prepared as a crude bacterial lysate by mild sonication in ice-cold 1 C PBS and solubilization in 1% Triton X-100. Cell debris was removed by centrifugation at 7,000 g and the cleared bacterial lysate applied to glutathione-Sepharose-4B (Pharmacia). […] Specifically bound proteins were eluted with 3×SDS loading buffer and analyzed by immunoblotting using an anti-c-myc antibody. […]

[2] = molecular target: T2, myc-tagged full-length GTRAP4-48 (rat, UniProt Q9ES67); assay: as above
T2 construct: tested from solubilized cell extract; also called myc-tagged GTRAP4-48; not shown: myc tag of the myc-tagged pRK5 vector
Protocol: as §1, §2

B1: GST (glutathione S-transferase) alone (other, UniProt P08515 1-218, looked up)
chain: MSPILGYWKIKGLVQPTRLLLEYLEEKYEEHLYERDEGDKWRNKKFELGLEFPNLPYYIDGDVKLTQSMAIIRYIADKHNMLGGCPKERAEISMLEGAVLDIRYGVSRIAYSKDFETLKVDFLSKLPEMLKMFEDRLCHKTYLNGDHVTHPDFMLYDALDVVLYMDPMCLDAFPKLVCFKKRIEAIPQIDKYLKSSKYIAWPLQGWQATFGGGDHPPK
notes: Control, immobilized on glutathione-Sepharose
- binding result [1]: no binding
- binding result [2]: no binding

— patent US6808893 (Johns Hopkins, dated 2004)
